# Assay results taken from patent publication US5556849A, “Ruthenium containing phthalocyanin photosensitizers” (priority 1991, dated 1996).
# Experiment: Light absorption maxima and molar extinction coefficients
# Type: physicochemical
# Conditions: in water (W)
# Description: Compounds according to the invention were assessed and characterised by their light absorption maxima, and their molar extinction coefficients according to conventional test procedures. Most of the compound were tested for their biological activity according to conventional test procedures in the art. The PC50 represents phototoxic concentration 50%. which is the concentration of compound when exposed to a light dose as described herein, causes a 50% reduction in cancer cell growth vs an untreated control population. The phototoxicity index. PI, is the ratio of the PC50 to the cytotoxic concentration 50%. where the growth is reduced by 50% without a light dose being given.
row,Structure (SMILES),λmax Q
1,NCCC(=O)[O-].NCCC(=O)[O-].[K+].[K+].c1ccc2c(c1)C1=NC3=NC(=Nc4c5ccccc5c5[n]4[Ru][n]4c(c6ccccc6c4=N5)=NC2=N1)c1ccccc13 [RuPc(β-ALA)2],635
2,Fc1c(F)c(F)c2c(c1F)C1=NC2=Nc2c3c(F)c(F)c(F)c(F)c3c3[n]2[Ru][n]2c(c4c(F)c(F)c(F)c(F)c4c2=NC2=NC(=N3)c3c(F)c(F)c(F)c(F)c32)=N1.O=C(O)c1cccnc1.O=C(O)c1cccnc1 [RuF16 Pc(Nic)2],635
